The values that follow are results of earlier work, collected in patent US20080153758A1, “Compounds Which Inhibits Protein Prenylation E.G. Geranylgeransferse or Farnesyltransferase Inhibitors for Treating Parkinson's Disease” (priority 2004, published 2008).

The chains behind the UniProt entries cited, without tags or fusion partners.
UniProt P49356, whole entry: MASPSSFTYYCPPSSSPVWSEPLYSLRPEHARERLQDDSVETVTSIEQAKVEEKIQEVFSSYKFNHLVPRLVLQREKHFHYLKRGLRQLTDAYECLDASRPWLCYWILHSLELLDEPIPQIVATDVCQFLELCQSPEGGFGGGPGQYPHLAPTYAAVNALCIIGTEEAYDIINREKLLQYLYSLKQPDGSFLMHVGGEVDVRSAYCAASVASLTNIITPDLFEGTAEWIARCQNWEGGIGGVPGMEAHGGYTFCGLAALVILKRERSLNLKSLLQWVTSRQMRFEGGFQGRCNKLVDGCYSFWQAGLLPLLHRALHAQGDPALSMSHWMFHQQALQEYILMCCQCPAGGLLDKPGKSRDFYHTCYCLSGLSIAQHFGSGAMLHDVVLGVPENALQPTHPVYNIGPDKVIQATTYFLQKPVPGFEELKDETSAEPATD
UniProt P53609, whole entry: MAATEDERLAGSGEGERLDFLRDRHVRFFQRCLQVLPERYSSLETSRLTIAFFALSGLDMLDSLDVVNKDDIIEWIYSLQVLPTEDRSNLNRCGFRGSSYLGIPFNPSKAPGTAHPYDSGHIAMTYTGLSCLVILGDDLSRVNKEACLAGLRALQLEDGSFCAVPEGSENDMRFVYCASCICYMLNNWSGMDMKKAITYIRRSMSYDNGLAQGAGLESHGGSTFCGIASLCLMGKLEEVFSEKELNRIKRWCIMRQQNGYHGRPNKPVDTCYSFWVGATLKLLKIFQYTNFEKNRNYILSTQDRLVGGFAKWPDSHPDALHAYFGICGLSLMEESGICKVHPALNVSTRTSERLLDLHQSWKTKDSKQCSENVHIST

One data set concerns the target FTase (Homo sapiens, UniProt P49354+P49356). The conditions noted are these: read-out: FTase IC50; cited from earlier work.
The next data set deals with GGTase I (Homo sapiens, UniProt P49354+P53609). The note with it: read-out: GGTase I / PGGTase-I IC50; cited from earlier work.

Take `Cn1cncc1C(OCc1ccc(C#N)cc1)c1ccc(C#N)c(-c2cccc3ccccc23)c1` (stereo not drawn): the results for the IC50 on FTase and on GGTase I were 0.3 nM and 118 nM, respectively. `Cn1cncc1C(OCc1ccc(C#N)cn1)c1ccc(C#N)c(-c2cccc3ccccc23)c1` (stereo not drawn): the IC50 on FTase is 0.4 nM.
